These results are taken from US7326768B2, “Goodpasture antigen-binding protein isoforms and protein misfolded-mediated disorders” (priority 2003, dated 2008).

One experiment concerns NZW mice. Nature of the experiment: Degenerative glomerulopathy in NZW mice (histochemical studies of kidney). To be noted: NZW treated with DAB-Am-4 and peptide 20 μg/g i.p. The class given is in vivo.
In experiment [1] the test system is α3(IV)NC1-expressing cells (HEK293). Nature of the experiment: α3(IV)NC1 conformer production in cultured cells (Western blot of culture media). It counts as cell-based, human. To be noted: synthetic peptides 100-200 μM, organic compounds 5-50 μM, 24-48 h. (In general: In western blotting, separated proteins are transferred to a membrane and probed.)

Regarding `CC[C@@H](C)[C@@H](NC(=O)[C@@H](CS)NC(=O)[C@@H](Cc1c[nH]cn1)NC(=O)[C@@H](CO)NC(=O)[C@@H](CC(C)C)NC(=O)[C@H](NC(=O)[C@@H](C)NC(=O)[C@@H](CC(C)C)NC(C)=O)[C@H](C)O)C(=O)N[C@H](CCC(=O)O)C(=O)N[C@H](CC(C)C)C(=O)N[C@H](CCSC)C(=O)N[C@@H](C(=O)N[C@H](CCCCN)C(=O)N[C@H](CCCNC(=N)N)C(N)=O)C(C)C` [Q2D], the “material deposited in the glomerulus of suspected collagenous nature” value with NZW mice was “significantly more effective than the L-amino acid version”. Also, the “α3(IV)NC1 conformer production in cultured cells” value in experiment [1] is listed as “more efficient inhibiting”.
